Where two headings read alike, the source gives them in different places.
Key:
[1] = molecular target: GSK3α (GST-full length GSK3α) (Homo sapiens (Human), UniProt P49840); test: GSK3α TR-FRET kinase assay; type: biochemical
[2] = molecular target: GSK3b (GST-full length GSK3b) (Homo sapiens (Human), UniProt P49841); test: GSK3b TR-FRET kinase assay; type: biochemical
[3] = read-out: GSK3-A TR-FRET BIOCHEMICAL (TR-FRET), GMean, IC50, 1 nM GSK3α, 4 μM ATP, 30 minute preincubation, geometric mean
[4] = read-out: GSK3-B TR-FRET BIOCHEMICAL (TR-FRET), GMean, IC50, 1 nM GSK3b, 2 μM ATP, 30 minute preincubation, geometric mean
[5] = read-out: GSK3-A TR-FRET BIOCHEMICAL (TR-FRET);, 1 nM GSK3α, 4 μM ATP, 30 minute preincubation, Table 16
[6] = read-out: GSK3-B TR-FRET BIOCHEMICAL (TR-FRET);, 1 nM GSK3b, 2 μM ATP, 30 minute preincubation, Table 16
[7] = read-out: GSK3-A TR-FRET BIOCHEMICAL (TR-FRET), IC50, 1 nM GSK3α, 4 μM ATP, 30 minute preincubation (Table 16)
[8] = read-out: GSK3-B TR-FRET BIOCHEMICAL (TR-FRET), IC50, 1 nM GSK3b, 2 μM ATP, 30 minute preincubation (Table 16)
[9] = read-out: GSK3-A TR-FRET BIOCHEMICAL (TR-FRET), IC50, 1 nM GSK3α, 4 μM ATP, 30 minute preincubation
[10] = read-out: GSK3-B TR-FRET BIOCHEMICAL (TR-FRET), IC50, 1 nM GSK3b, 2 μM ATP, 30 minute preincubation
[11] = read-out: GSK3-A (TR-FRET 1 mM ATP), GMean, IC50, 1 mM ATP, geometric mean
[12] = read-out: GSK3-B (TR-FRET 1 mM ATP), GMean, IC50, 1 mM ATP, geometric mean

By UniProt entry, the sequences of proteins in these tests, tags left out.
UniProt P49840, whole entry: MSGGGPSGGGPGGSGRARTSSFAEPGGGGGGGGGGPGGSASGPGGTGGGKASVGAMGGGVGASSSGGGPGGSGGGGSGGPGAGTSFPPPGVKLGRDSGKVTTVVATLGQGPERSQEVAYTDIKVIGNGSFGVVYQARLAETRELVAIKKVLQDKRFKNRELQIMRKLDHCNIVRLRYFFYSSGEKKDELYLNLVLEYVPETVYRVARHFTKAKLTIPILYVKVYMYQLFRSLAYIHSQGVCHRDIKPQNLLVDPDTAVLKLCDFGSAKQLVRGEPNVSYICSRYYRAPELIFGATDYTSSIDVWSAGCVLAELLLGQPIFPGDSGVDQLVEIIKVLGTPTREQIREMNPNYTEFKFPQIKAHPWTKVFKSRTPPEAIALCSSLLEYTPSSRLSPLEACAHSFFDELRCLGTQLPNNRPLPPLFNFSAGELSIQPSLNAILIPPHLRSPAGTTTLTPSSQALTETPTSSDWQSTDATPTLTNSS
UniProt P49841, whole entry: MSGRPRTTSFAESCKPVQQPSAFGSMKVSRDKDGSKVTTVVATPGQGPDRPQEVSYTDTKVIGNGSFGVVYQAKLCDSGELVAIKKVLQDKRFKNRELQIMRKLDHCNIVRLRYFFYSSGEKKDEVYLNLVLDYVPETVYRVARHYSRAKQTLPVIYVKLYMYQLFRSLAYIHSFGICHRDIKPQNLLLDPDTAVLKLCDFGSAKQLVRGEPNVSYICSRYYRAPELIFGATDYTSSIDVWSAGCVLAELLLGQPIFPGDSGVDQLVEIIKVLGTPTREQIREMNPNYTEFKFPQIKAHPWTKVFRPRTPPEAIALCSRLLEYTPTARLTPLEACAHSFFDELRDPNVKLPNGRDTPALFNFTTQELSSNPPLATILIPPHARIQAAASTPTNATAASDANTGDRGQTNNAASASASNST

| IC50 [1, 3] | IC50 [2, 4] | IC50 [1, 7] | IC50 [2, 8] | SMILES | also measured |
| --- | --- | --- | --- | --- | --- |
| < 0.1 µM | 0.1 to 1 µM |  |  | CC[C@@]1(c2cccc(-c3ccnc(C)c3)c2)C2=C(C[C@]3(CCCOC3)NC2=O)Nc2n[nH]cc21 |  |
|  |  |  |  | CC[C@@]1(c2cccc(-c3ccnc(C)c3)c2)C2=C(Nc3n[nH]cc31)[C@H]1CC[C@H](C1)C2=O | IC50 [1, 5]: 1 to 5 µM; IC50 [2, 6]: > 5 µM |
| < 0.1 µM | < 0.1 µM |  |  | CC[C@@]1(c2cccc(-c3ccnc(C)c3)c2)C2=C(CC3(CCCC3)NC2=O)Nc2n[nH]cc21 |  |
|  |  | 0.1 to 1 µM | 1 to 5 µM | CC[C@@]1(c2cccc(-c3ccnc(OC)c3)c2)C2=C(CC(C)(C)CC2=O)Nc2n[nH]c(C)c21 |  |
|  |  | < 0.1 µM | 0.1 to 1 µM | CCC1(c2cccc(-c3cn(C)nc3C(C)C)c2)C2=C(CC(C)(C)CC2=O)Nc2n[nH]c(C)c21 (centres unmarked) |  |
|  |  |  |  | CC[C@]1(c2cccc(C(F)(F)F)c2)C2=C(Nc3n[nH]cc31)[C@@H](C)N(Cc1ccccc1)C2=O | IC50 [1, 9]: 1 to 5 µM; IC50 [2, 10]: > 5 µM |
| < 0.1 µM | 0.1 to 1 µM |  |  | CC[C@]1(c2cccc(Br)c2)C2=C(C[C@@H](C)CC2=O)Nc2n[nH]cc21 |  |
|  |  |  |  | CC[C@@]1(c2cccc(C(F)(F)C(F)(F)F)c2)C2=C(CC(C)(C)CC2=O)Nc2n[nH]cc21 | IC50 [1, 11]: 0.1 to 1 µM; IC50 [1, 5]: < 0.1 µM; IC50 [2, 12]: 0.1 to 1 µM; IC50 [2, 6]: < 0.1 µM |
|  |  | < 0.1 µM | 0.1 to 1 µM | CC[C@@]1(c2cccc(N3CCc4ccncc43)c2)C2=C(CC(C)(C)CC2=O)Nc2n[nH]cc21 |  |
|  |  | < 0.1 µM | 0.1 to 1 µM | CC[C@]1(c2cccc(-c3cc(C)nnc3C)c2)C2=C(CC(C)(C)NC2=O)Nc2n[nH]cc21 | IC50 [1, 11]: 0.1 to 1 µM; IC50 [2, 12]: 1 to 5 µM |
|  |  | 0.1 to 1 µM | 1 to 5 µM | CC[C@@]1(c2cccc(-c3cc(C)ncc3C)c2)C2=C(CC(C)(C)CC2=O)Nc2n[nH]c(C)c21 |  |
|  |  |  |  | CC1(C)CC(=O)C2=C(C1)Nc1n[nH]cc1[C@@]21COC2(CN(C(=O)[C@@H]3CC3(F)F)C2)C1 | IC50 [1, 9]: 0.1 to 1 µM; IC50 [2, 10]: 0.1 to 1 µM |
|  |  | < 0.1 µM | < 0.1 µM | CC[C@@]1(c2cccc(OC)c2)C2=C(CC(C)(C)CC2=O)Nc2n[nH]c(C(F)(F)F)c21 (single isomer, unassigned) | IC50 [1, 11]: < 0.1 µM; IC50 [2, 12]: 0.1 to 1 µM |
|  |  | 0.1 to 1 µM | 1 to 5 µM | CC[C@]1(c2cccc(-c3ccnc(N(C)C)c3)c2)C2=C(CC(C)(C)CC2=O)Nc2n[nH]c(C)c21 |  |
| < 0.1 µM | < 0.1 µM |  |  | CC[C@]1(c2cccc(-c3ccnn3C)c2)C2=C(CC3(CCC3)NC2=O)Nc2n[nH]cc21 | IC50 [1, 11]: 0.1 to 1 µM; IC50 [2, 12]: 1 to 5 µM |
|  |  | < 0.1 µM | < 0.1 µM | CC[C@@]1(c2cccc(N3CCCCC3)c2)C2=C(CC(C)(C)CC2=O)Nc2n[nH]c(C)c21 (single isomer, unassigned) | IC50 [1, 11]: 0.1 to 1 µM; IC50 [2, 12]: 0.1 to 1 µM |
|  |  | 0.1 to 1 µM | 1 to 5 µM | CC[C@@]1(c2cccc(-c3cnn(C)c3C)c2)C2=C(CC(C)(C)CC2=O)Nc2n[nH]c(C)c21 |  |
| 1 to 5 µM | 0.1 to 1 µM |  |  | CC(C)(C)Cc1[nH]nc2c1[C@@]1(CCc3ccc(F)cc31)C1=C(CC(C)(C)CC1=O)N2 |  |
| 0.1 to 1 µM | 1 to 5 µM |  |  | CC[C@@]1(c2cccc(-c3ccnc4ccc(Cl)cc34)c2)C2=C(CC(C)(C)NC2=O)Nc2n[nH]cc21 |  |
|  |  |  |  | CC1(C)CC(=O)C2=C(C1)Nc1n[nH]cc1[C@]21COC2(CN(C(=O)[C@@H]3CC3(F)F)C2)C1 | IC50 [1, 11]: 0.1 to 1 µM; IC50 [1, 9]: < 0.1 µM; IC50 [2, 12]: 1 to 5 µM; IC50 [2, 10]: < 0.1 µM |
| < 0.1 µM | 0.1 to 1 µM |  |  | CC[C@@]1(c2cccc(-c3ccnc(C)c3)c2)C2=C(C[C@]3(CCOC3)NC2=O)Nc2n[nH]cc21 |  |
| < 0.1 µM | < 0.1 µM |  |  | CC1(C)CC(=O)C2=C(C1)Nc1n[nH]c(C(F)(F)F)c1C21CCc2c(F)cccc21 (centres unmarked) [Compound 806568] |  |
| 0.1 to 1 µM | 0.1 to 1 µM |  |  | CC(C)(C)Cc1[nH]nc2c1[C@]1(CCc3cc(F)ccc31)C1=C(CC(C)(C)CC1=O)N2 |  |
| < 0.1 µM | < 0.1 µM |  |  | CC[C@]1(c2cccc(Cl)c2)C2=C(CC(C)(C)CC2=O)Nc2n[nH]c(C)c21 |  |
|  |  | < 0.1 µM | 0.1 to 1 µM | CC[C@@]1(c2cccc(N(C)c3ccc(F)nc3)c2)C2=C(CC(C)(C)CC2=O)Nc2n[nH]cc21 |  |
|  |  |  |  | CC[C@@]1(c2ccc(OC(C)C)cc2)C2=C(CC(C)(C)CC2=O)Nc2n[nH]c(C(F)(F)F)c21 | IC50 [1, 5]: 0.1 to 1 µM; IC50 [2, 6]: 0.1 to 1 µM |
|  |  |  |  | CC1(C)CC(=O)C2=C(C1)Nc1n[nH]cc1[C@]21C[C@@]2(CCN(CC(F)(F)F)C2)C1 (relative stereo) | IC50 [1, 9]: 0.1 to 1 µM; IC50 [2, 10]: 0.1 to 1 µM |
|  |  | < 0.1 µM | 0.1 to 1 µM | CCC1(c2cccc(-c3ccnc(OC)c3)c2)C2=C(CC(C)(C)CC2=O)Nc2n[nH]c(C)c21 (centres unmarked) [Compound 913053] |  |

Reference: patent US20250313563A1, “GLYCOGEN SYNTHASE KINASE 3 INHIBITORS AND USES THEREOF” (The Broad Institute, Inc., priority 2022, published 2025)
